Among the data in the NIST ThermoML archive (doi:10.1021/je800446c) are mass density values, retold here.

The conditions of this data set: 298.15 K; 101.33 kPa; Liquid; Pycnometric method.

Molecules are shown by their SMILES. Numbers after ± are expanded uncertainties.

Take `CCCCOCCCC` [dibutyl ether]: the mass density – broadly, the mass of a sample divided by its volume – is 764.23 ± 0.69 kg/m3.
